The record followed here is patent US11944111B2, “Stabilizing sorbic acid in beverage syrup” (PepsiCo, Inc., priority 2015, dated 2024).

The conditions of the data set: UV-vis 263 nm, saturated solution, aged at 40 F. 0 day.

Consider `C/C=C/C=C/C(=O)[O-].[K+]` [Potassium Sorbate], for which the “Abs (pH 3.0)” value was 1.716.
